Measurements published in US20050153943A1, “Methods of simultaneously treating mucositis and fungal infection” (priority 2002, published 2005).

System: BALB/c 3T3 (CCL-163) cells
Assay: 3T3 phototoxicity assay (Neutral Red uptake, with/without UVA)
Details: 5 J/cm^2 UVA vs dark; <0.1 nonphototoxin, 0.1 to <0.15 probable, >=0.15 clear phototoxin

Substance: tetracycline pyrazole [COL 5]
- MPE (mean photo effect): 0.186
